System: P10636
Test: SDS-PAGE and Western blot of heat-, SDS- and reducing condition-stable multimers; 2 μM tau in aggregation buffer (10 mM sodium Hepes, 0.1 mM EDTA, 200 mM NaCl, 5 mM DTT, pH 7.6) with 75 μM arachidonic acid (aggregated) or ethanol vehicle (unaggregated), 6 h at RT; boiled in Laemmli buffer …
Conditions: other: SDS-PAGE and Western blot of heat-

Substance	fold increase of stable multimers on aggregation against the unaggregated sample
O-GlcNAc modified hT40 (Glc hT40, 2N4R tau)	3.8-fold increase, t = 6.530, p < 0.05 for Glc hT40
unmodified hT40 (full-length tau, 2N4R isoform, 441 amino acids)	3-fold increase, t = 6.431, p < 0.05 for unmodified hT40

— PMC11927755
